# Assay results as given in PubChem BioAssay AID624170 (National Center for Advancing Translational Sciences (NCATS), 2012).
# Sequences of proteins named here, by UniProt entry; tags and fusion partners are left off.
# UniProt O94925, whole entry: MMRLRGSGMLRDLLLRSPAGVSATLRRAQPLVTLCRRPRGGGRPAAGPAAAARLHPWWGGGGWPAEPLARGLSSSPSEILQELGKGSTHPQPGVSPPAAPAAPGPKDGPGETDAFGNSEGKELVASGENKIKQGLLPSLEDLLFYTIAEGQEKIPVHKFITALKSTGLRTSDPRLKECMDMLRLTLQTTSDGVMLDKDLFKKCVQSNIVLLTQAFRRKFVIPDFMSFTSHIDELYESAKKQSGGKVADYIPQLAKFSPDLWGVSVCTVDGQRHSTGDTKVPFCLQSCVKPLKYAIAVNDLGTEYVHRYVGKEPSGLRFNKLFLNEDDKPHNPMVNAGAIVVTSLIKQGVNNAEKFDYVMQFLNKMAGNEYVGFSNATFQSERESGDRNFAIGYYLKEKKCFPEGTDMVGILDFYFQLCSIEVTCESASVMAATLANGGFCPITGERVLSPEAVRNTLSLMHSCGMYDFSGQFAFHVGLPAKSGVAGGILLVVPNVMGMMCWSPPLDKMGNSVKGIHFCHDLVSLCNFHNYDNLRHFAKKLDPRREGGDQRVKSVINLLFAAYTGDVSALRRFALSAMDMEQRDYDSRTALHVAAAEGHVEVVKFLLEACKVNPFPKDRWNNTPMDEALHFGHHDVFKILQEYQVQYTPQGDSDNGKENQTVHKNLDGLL
# Only a part is listed here, and it is no random draw. Inconclusive results are not listed. Activity calls are given as the source filed them. Calls come from the whole dose curve; as a rule, active = well fitted inhibition curve with a large enough effect; inconclusive = small, poorly fitted or top-dose-only effect, or another doubt; inactive = no such curve, though single readings can be large or run the other way.
# Target: Glutaminase kidney isoform, mitochondrial (Homo sapiens) (UniProt O94925)
# Assay: qHTS for Inhibitors of Glutaminase (GLS)
# Settings: GLS enzymatic activity, qHTS titration; at 45.5 µM (top of the series) unless noted
# % is set by controls: 0 for no effect and ±100 for the full control effect.
row,SMILES,"activity change, negative = inhibition"
1,CCOC(=O)c1ccc(NP(C)(=O)Oc2ccc(F)cc2)cc1 (stereo unspecified),inactive: -7.95%
2,CCN(CC)CCCOC(=O)C(O)(c1ccccc1)C1CCCCC1 (stereo unspecified),inactive: 20.5%
3,Cc1c([N+](=O)[O-])cc([N+](=O)[O-])c(Br)c1[N+](=O)[O-],inactive: -18.1%
4,CCCCCOc1ccc(NP(C)(=O)Oc2ccc(Cl)cc2Cl)cc1 (stereo unspecified),inactive: 8.15%
5,CP(=O)(Nc1ccccc1)Oc1ccc(F)cc1 (stereo unspecified),inactive: 1.52%
6,CC(C)c1ccc(OP(C)(=O)Nc2ccc(SC(F)(F)F)cc2)cc1 (stereo unspecified),inactive: -1.9%
7,CP(=O)(Nc1ccccc1F)Oc1ccccc1 (stereo unspecified),inactive: 4.3%
8,O=C(OCCN1CCN(CCOCc2ccccc2)CC1)C(O)(c1ccccc1)c1ccccc1,inactive: 9.28%
9,CCOP(=O)(CC)Oc1ccc([N+](=O)[O-])cc1 (stereo unspecified),inactive: -2.86%
10,CP(=O)(Nc1ccc(SC(F)(F)F)cc1)Oc1ccc(F)cc1 (stereo unspecified),inactive: -5.46%
11,CCOP(C)(=S)SCC(=O)NC(C)(CC)C(=O)O (stereo unspecified),inactive: 8.5%
12,CP(=O)(Nc1ccc2c(c1)OCCO2)Oc1ccccc1 (stereo unspecified),inactive: 23.5%
13,O=[N+]([O-])c1cc([N+](=O)[O-])c(C(F)(F)F)c([N+](=O)[O-])c1O,inactive: 33.2%
14,Cc1ccccc1NP(C)(=O)Nc1ccccc1C,inactive: 3.99%
15,COc1ccc(OP(C)(=O)Nc2cccc(Br)c2)cc1 (stereo unspecified),inactive: -0.803%
16,COc1ccc(NP(C)(=O)Oc2ccccc2OC)cc1 (stereo unspecified),inactive: -2.69%
17,CN(C)CCOC(=O)C(O)(c1ccccc1)C1CCCCC1 (stereo unspecified),inactive: 10.2%
18,Cc1cc(-c2cccc3ccccc23)c(C)cn1.O=[N+]([O-])c1cc([N+](=O)[O-])c(O)c([N+](=O)[O-])c1,inactive: -9.98%
19,O=[N+]([O-])c1ccc(OP2(=O)COCCO2)cc1 (stereo unspecified),inactive: 4.72%
20,Cc1c(C(c2ccc3c(c2)OCO3)c2c(C)n(C)n(-c3ccccc3)c2=O)c(=O)n(-c2ccccc2)n1C.O=[N+]([O-])c1cc([N+](=O)[O-])c(O)c([N+](=O)[O-])c1,inactive: -2.45%
21,Nc1ccc2c(ccc3cccnc32)n1.O=[N+]([O-])c1cc([N+](=O)[O-])c(O)c([N+](=O)[O-])c1,inactive: 4.38%
22,CP(=O)(OC12CC3CC(CC(C3)C1)C2)OC12CC3CC(CC(C3)C1)C2,inactive: 0.183%
23,CCOC(=O)c1ccc(NP(C)(=O)Oc2ccc(Cl)cc2)cc1 (stereo unspecified),inactive: -1.45%
24,C/C1=C2N=C(/C=C3N=C(/C(C)=C4\[N-][C@@](C)([C@H]5N=C1[C@@](C)(CCC(=O)NC[C@H](C)OP(=O)([O-])O[C@@H]1[C@H](O)[C@H](n6cnc7cc(C)c(C)cc76)O[C@@H]1CO)[C@@H]5CC(N)=O)[C@](C)(CC(N)=O)[C@H]4CCC(N)=O)[C@@](C)(CC(N)=O)[C@@H]\3CCC(N)=O)C(C)(C)[C@@H]/2CCC(N)=O.[C-]#N.[Co+3],inactive: 0.437% [at 20 µM]
25,CC(C)OP(=O)(F)OC(C)C,inactive: 4.9%
26,N#[O+].[C-]#N.[C-]#N.[C-]#N.[C-]#N.[C-]#N.[Fe+2].[Na+].[Na+],inactive: 11.5%

row,SMILES,"activity change, negative = inhibition"
1,CCN(CC)CC(O)COC(=O)C(O)(c1ccccc1)C1CCCCC1 (stereo unspecified),inactive: 0.592%
2,COc1ccc(OP(C)(=O)Nc2ccc(Br)cc2)cc1 (stereo unspecified),inactive: 1.79%
3,CP(=O)(Oc1ccccc1)N1CCOC1=O (stereo unspecified),inactive: -1.13%
4,CCc1ccc(OP(C)(=O)Nc2cccnc2)cc1 (stereo unspecified),inactive: -9.67%
5,COc1ccccc1OP(C)(=O)Nc1c(C)n(C)n(-c2ccccc2)c1=O (stereo unspecified),inactive: 52.2%
6,O=C(OCCCN1CCCC1)C(O)(c1ccccc1)C1CCCCC1 (stereo unspecified),inactive: 9.37%
7,OCCSCCO,inactive: 6.18%
8,CP(=O)(Nc1ccc(Cl)cc1)Oc1ccc(F)cc1 (stereo unspecified),inactive: 3.64%
9,CC(C)(C)c1ccc(OP(C)(=O)O)cc1,inactive: 1.34%
10,COc1ccccc1OP(C)(=O)Nc1ccccc1Br (stereo unspecified),inactive: -10.9%
11,CN(C)C(=O)c1c([N+](=O)[O-])cc([N+](=O)[O-])cc1[N+](=O)[O-],inactive: 4.08%
12,COc1ccccc1OP(C)(=O)Nc1ccc(Br)cc1 (stereo unspecified),inactive: 0.841%
13,CN(C)CCOC(=O)C(O)(c1ccccc1)C1CCCC1 (stereo unspecified),inactive: 5.29%
14,COc1ccc(OP(C)(=O)Nc2ccccn2)cc1 (stereo unspecified),inactive: -5.09%
15,O=[N+]([O-])c1cc([N+](=O)[O-])c(Nc2ccccn2)c([N+](=O)[O-])c1,inactive: 16%
16,Cc1c(NP(C)(=O)Oc2ccc(C(C)C)cc2)c(=O)n(-c2ccccc2)n1C (stereo unspecified),inactive: 16.7%
17,CCc1ccc(OP(C)(=O)O)cc1,inactive: 3.46%
18,CP(=O)(Nc1ccccn1)Oc1ccccc1 (stereo unspecified),inactive: 0.664%
19,COc1ccccc1OP(C)(=O)Nc1ccc(C)cc1C (stereo unspecified),inactive: 8.31%
20,Cc1cc(C)cc(OP(C)(=O)Nc2cccc(C(F)(F)F)c2)c1 (stereo unspecified),inactive: -8.33%
21,COc1ccc(OP(C)(=O)Nc2ccccc2Br)cc1 (stereo unspecified),inactive: 3.86%
22,COc1ccccc1OP(C)(=O)Nc1ccc(C)c(C)c1 (stereo unspecified),inactive: 9.9%
23,CP(=O)(OCCOc1ccccc1)OCCOc1ccccc1,inactive: 2.67%
24,CP(=O)(Nc1ccc(Cl)cc1Cl)Oc1ccccc1 (stereo unspecified),inactive: -8.81%
25,CCCCCCCCCCCCCCCC1C[N+](C)(C)CCOP(C)(=O)O1 (stereo unspecified),inactive: -0.205%
